{
  "source": "patent US20050250853A1",
  "about": "“Beta-tubulin inhibitors” (priority 1999, published 2005)",
  "key": {"[1]": {"test_system": "β-tubulin", "experiment": "Competition with antimicrotubule agents for the site of β-tubulin alkylation", "type": "cell-based, human", "method": "FIG. 6. Identification of the site of alkylation of β-tubulin by CEU: competition with antimicrotubule agents. […] Data are representative of three different experiments.\nSamples (1×10^5 cells) were analyzed by 10% SDS-PAGE using the Laemmli system (15). Membranes were then incubated with PBSMT (PBS, pH 7.4, 5% fat-free dry milk and 0.1% Tween-20) for 1 h at room temperature, and then with 1:500 monoclonal anti-β-tubulin (clone TUB 2.1, Sigma) or 1:400 anti (clone no. SDL.3D10, Sigma) for 1 h. […] Membranes were washed with PBSMT and incubated with 1:2500 peroxidase-conjugated anti-mouse immunoglobulin (Amersham Canada, Oakville, Canada) in PBSMT for 30 min. Detection of the immunoblot was carried out with the ECL Western blotting detection reagent kit (Amersham Canada, Oakville, Canada).\nThe latter agents were used because they have well defined binding sites on β-tubulin (24-28) and because they were expected to inhibit alkylation by CEU if they shared a common binding site. […] These putative alkylation sites are two nucleophilic mercapto groups of cysteine residues at positions 239 and 354, respectively (25). To assess the possible alkylation of these mercapto residues by CEU, MDA-MB-231 cells were treated with 4-tBCEU in the presence of iodoacetamide, a specific thiol alkylating agent (31, 32). […] Similar experiments were carried out using EBI, a bifunctional alkylating agent that specifically induces cross-linking between Cys239 and Cys354 of β-tubulin (32)."}, "[2]": {"test_system": "β-tubulin", "experiment": "Separation of soluble and polymerized tubulins, Western blot of β-tubulin", "type": "cell-based, human", "details": "MDA-MB-231 cells, 30 μM, 24 h and 48 h, free tubulin fraction", "method": "FIG. 2. Effects of CEU derivatives on microtubule depolymerization. Exponentially growing MDA-MB-231 cells were incubated in the absence or the presence of 30 μM of CEU derivatives including (A) 4-tBCEU, 4-iPCEU or 4-sBCEU for 24 and 48 h respectively; (B) 2-ECEU, 3-ECEU or 4-ECEU for 24 and 48 h; and (C) 4-tBEU, 4-iPEU, 4-sBEU, 4-tBCPU, CEU or 4-methoxyCEU for 48 h. Free tubulin and microtubule fractions were isolated and analyzed by Western blot. Data are representative of three different experiments.\nSeparation of soluble and polymerized tubulins from MDA-MB231 cells was carried out as described by Minotti et al. (14) with minor modifications. Briefly, after drug exposure, about 5×10^6 cells in 100-mm petri dishes were washed with PBS at 37° C. and harvested in 3 ml of PBS containing 0.4 μg/ml of taxol using a rubber policeman.\nCells were centrifuged and lysed using 250 μl of microtubule-stabilizing buffer (20 mM Tris-HCl, pH 6.8, 140 mM NaCl, 1 mM MgCl2, 2 mM EDTA, 0.5% Nonidet P-40 and 0.4 μg/ml taxol), and then transferred to 1.5 ml microcentrifuge tubes. […] Samples were analyzed by SDS-PAGE and immunoassay was performed as described below.\nSamples (1×10^5 cells) were analyzed by 10% SDS-PAGE using the Laemmli system (15). […]"}},
  "note": "“Also recorded” adds a separate entry of the source.",
  "data": [
    {"smiles": "COc1cc2c(c(OC)c1OC)-c1ccc(OC)c(=O)cc1[C@@H](NC(C)=O)CC2", "note": "[Colchicine, reference compound]", "values": [
      {"measurement": "effect of competitor on formation of modified β-tubulin induced by CEU", "setting": "[1]", "result": "prevented formation of the additional β-tubulin band; also recorded: prevented the formation of modified β-tubulin"},
      {"measurement": "effect of competitor on formation of the 50-kDa radiolabeled band by [urea-14C]-4-tBCEU", "setting": "[1]", "result": "inhibition of the formation of the 50-kDa radiolabeled band"},
      {"measurement": "effect of pre-treatment on β-tubulin alteration induced by EBI", "setting": "[1]", "result": "abrogated"},
      {"measurement": "formation of modified β-tubulin (second immunoreactive band of lower Mr)", "setting": "[2]", "result": "no such band"}
    ]}
  ]
}
